{
  "sequences": {"note": "The chains behind the UniProt entries cited, without tags or fusion partners.", "UniProt P11473, whole entry": "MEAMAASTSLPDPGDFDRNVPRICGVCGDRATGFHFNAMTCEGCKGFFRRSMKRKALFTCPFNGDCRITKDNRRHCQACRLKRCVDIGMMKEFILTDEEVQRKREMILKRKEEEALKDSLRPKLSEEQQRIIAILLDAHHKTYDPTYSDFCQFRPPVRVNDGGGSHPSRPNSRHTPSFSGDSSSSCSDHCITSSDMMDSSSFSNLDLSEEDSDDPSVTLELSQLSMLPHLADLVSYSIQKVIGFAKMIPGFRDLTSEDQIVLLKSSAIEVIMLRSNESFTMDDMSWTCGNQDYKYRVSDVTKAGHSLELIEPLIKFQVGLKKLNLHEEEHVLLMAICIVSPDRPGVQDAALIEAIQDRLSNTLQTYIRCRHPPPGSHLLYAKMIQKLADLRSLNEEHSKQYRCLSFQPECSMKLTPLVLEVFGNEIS"},
  "source": "PubChem BioAssay AID504847",
  "about": "(National Center for Advancing Translational Sciences (NCATS), 2011)",
  "note": "Only a part is listed here, and it is no random draw. Records with an inconclusive call do not appear. Active and inactive are the calls of the source. The call rests on the fitted dose curve; in most records, active means well fitted inhibition curve with a large enough effect; inconclusive means small, poorly fitted or top-dose-only effect, or another doubt; inactive means no such curve, though single readings can be large or run the other way. On the % scale 0 is the no-effect control and ±100 the full control effect; potency means the concentration at half of the fitted maximal effect.",
  "data": [
    {"molecular_target": "Vitamin D3 receptor (Homo sapiens) (UniProt P11473)", "experiment": "Inhibitors of the vitamin D receptor (VDR): qHTS", "conditions": "VDR-SRC2-3 peptide fluorescence polarization, 2 h; max response, negative = inhibition: hits give low values", "values": [
      {"smiles": "O=[N+]([O-])c1ccc2c(c1)C=Nc1ccccc1O2", "max response, negative = inhibition": "inactive: -29.9%"},
      {"smiles": "Cc1ccc2nc3c(c(C)c2c1)CC(C(Cl)Cl)S3", "note": "(stereo unspecified)", "max response, negative = inhibition": "inactive: 10.1%"},
      {"smiles": "Cc1cccc(C)c1OP(C)(N)=O", "note": "(stereo unspecified)", "max response, negative = inhibition": "inactive: 16.9%"},
      {"smiles": "O=C(O)C(O)(c1ccccc1)c1ccccc1", "max response, negative = inhibition": "inactive: 10.3%"},
      {"smiles": "Cc1ccc(OP(=O)(Nc2ccc([N+](=O)[O-])cn2)Oc2ccc(C)cc2)cc1", "max response, negative = inhibition": "inactive: -15.3%"},
      {"smiles": "CC(C)(C)c1ccc(OP(C)(=O)Nc2ccc(SC(F)(F)F)cc2)cc1", "note": "(stereo unspecified)", "max response, negative = inhibition": "inactive: -27.1%"},
      {"smiles": "COc1cc(C(=O)NCC2(N3CCOCC3)CCCCC2)ccc1OCC(C)C", "max response, negative = inhibition": "inactive: 4.42%"},
      {"smiles": "O=[As](O)(c1ccc(O)cc1)c1ccccc1O", "max response, negative = inhibition": "inactive: 3.07%"},
      {"smiles": "O=C(O)C1(O)c2ccccc2-c2ccccc21", "max response, negative = inhibition": "inactive: -24.9%"},
      {"smiles": "C[As](=O)(O)c1cccc(C(=O)O)c1", "max response, negative = inhibition": "inactive: -6.96%"},
      {"smiles": "O=[N+]([O-])c1cc([N+](=O)[O-])c(Nc2cccnc2)c([N+](=O)[O-])c1", "max response, negative = inhibition": "inactive: -8.13%"},
      {"smiles": "Cc1cc(C)cc(OP(C)(N)=O)c1", "note": "(stereo unspecified)", "max response, negative = inhibition": "inactive: -16.8%"},
      {"smiles": "COc1ccc(OP(C)(=O)Nc2cccc(F)c2)cc1", "note": "(stereo unspecified)", "max response, negative = inhibition": "inactive: -1.72%"},
      {"smiles": "O=[N+]([O-])c1cc([N+](=O)[O-])c(-c2ccn[nH]2)s1", "max response, negative = inhibition": "inactive: -4.71%"},
      {"smiles": "CC(C)NC(=O)NP(=O)(Oc1ccccc1)Oc1ccccc1", "max response, negative = inhibition": "inactive: 22.5%"},
      {"smiles": "COc1ccccc1OP(C)(=O)Nc1cc(Cl)ccc1C", "note": "(stereo unspecified)", "max response, negative = inhibition": "inactive: -3.7%"},
      {"smiles": "O=C(OC1CN2CCC1CC2)c1cccc2[nH]cnc12", "note": "(stereo unspecified)", "max response, negative = inhibition": "inactive: -2.42%"},
      {"smiles": "COC(=O)C1(C)COP(=O)(N2CCCCCC2)OC1", "note": "(stereo unspecified)", "max response, negative = inhibition": "inactive: 3.21%"},
      {"smiles": "Cc1ccc(NP(C)(=O)Oc2ccccc2)c(C)c1", "note": "(stereo unspecified)", "max response, negative = inhibition": "inactive: 6.3%"},
      {"smiles": "CC(C)c1ccc(OP(=O)(Nc2ccccn2)Oc2ccccc2F)cc1", "note": "(stereo unspecified)", "max response, negative = inhibition": "inactive: 0.813%"},
      {"smiles": "COc1ccccc1OP(C)(=O)Nc1ccc(C)cc1", "note": "(stereo unspecified)", "max response, negative = inhibition": "inactive: -2.37%"},
      {"smiles": "ClCCSc1nnc(-c2cccnc2)o1", "max response, negative = inhibition": "inactive: -6.36%"},
      {"smiles": "CCOC(=O)c1ccc(NP(C)(=O)Oc2ccccc2)cc1", "note": "(stereo unspecified)", "max response, negative = inhibition": "inactive: -9.32%"},
      {"smiles": "COc1cc(I)ccc1[As](=O)(O)O", "max response, negative = inhibition": "inactive: 10.1%"},
      {"smiles": "COc1ccc2nc(NP(=O)(c3ccccc3)c3ccccc3)sc2c1", "max response, negative = inhibition": "inactive: -4.56%"},
      {"smiles": "O=P1(N(CCCl)CCCl)Nc2ccccc2N1", "max response, negative = inhibition": "inactive: -9.68%"},
      {"smiles": "O=P1(N(CCCl)CCCl)OCCCN1CCCl", "note": "(stereo unspecified)", "max response, negative = inhibition": "inactive: -5.04%"},
      {"smiles": "Cc1cc(=O)[nH]c(N[N+](=O)[O-])n1", "max response, negative = inhibition": "inactive: -7.74%"},
      {"smiles": "CCN(CC)CCCOC(=O)C(O)(c1ccccc1)c1ccccc1", "max response, negative = inhibition": "inactive: -3.77%"},
      {"smiles": "Cc1c2c(nc3ccccc13)SC(C(Cl)Cl)C2", "note": "(stereo unspecified)", "max response, negative = inhibition": "inactive: -24.3%"},
      {"smiles": "COc1ccc(N/C(=N/P(=O)(N2CCOCC2)N2CCOCC2)N2CCOCC2)cc1", "max response, negative = inhibition": "inactive: -6.27%"},
      {"smiles": "Cc1cc(C)cc(OP(C)(=O)Nc2ccc(SC(F)(F)F)cc2)c1", "note": "(stereo unspecified)", "max response, negative = inhibition": "inactive: -4.24%"},
      {"smiles": "O=C(Nc1ccncc1[N+](=O)[O-])c1ccc([N+](=O)[O-])cc1[N+](=O)[O-]", "max response, negative = inhibition": "inactive: 20.2%"},
      {"smiles": "CP(=O)(NC(=O)Nc1ccccc1)Oc1ccccc1", "note": "(stereo unspecified)", "max response, negative = inhibition": "inactive: 83.1%"},
      {"smiles": "O=C(COc1ccccc1)OC1CN2CCC1CC2", "note": "(stereo unspecified)", "max response, negative = inhibition": "inactive: 4.83%"},
      {"smiles": "CCc1ccc(OP(C)(=O)N2CCN(c3ccc([N+](=O)[O-])cc3)CC2)cc1", "note": "(stereo unspecified)", "max response, negative = inhibition": "inactive: 0.542%"},
      {"smiles": "CP(=O)(Oc1ccccc1)OC(c1ccccc1)C(F)(F)F", "note": "(stereo unspecified)", "max response, negative = inhibition": "inactive: -0.225%"},
      {"smiles": "COP1(=S)c2c(C)nn(CCC#N)c2N=C(c2ccc(F)cc2)N1C", "note": "(stereo unspecified)", "max response, negative = inhibition": "inactive: -18.1%"},
      {"smiles": "CP(=O)(Nc1ccc(SC(F)(F)F)cc1)Oc1ccc(Cl)cc1", "note": "(stereo unspecified)", "max response, negative = inhibition": "inactive: -2.53%"},
      {"smiles": "Cc1cccc(C)c1OP(C)(=O)Nc1ccc(SC(F)(F)F)cc1", "note": "(stereo unspecified)", "max response, negative = inhibition": "inactive: 1.37%"},
      {"smiles": "CCOP(=O)(Nc1cccc2cccnc12)OCC", "max response, negative = inhibition": "inactive: 6.91%"},
      {"smiles": "CP(=O)(Nc1ccccn1)Oc1ccc(Cl)cc1", "note": "(stereo unspecified)", "max response, negative = inhibition": "inactive: 14.1%"},
      {"smiles": "CCC(C)N(CC(C)C)C(=S)SC(NC(C)=O)C(Cl)(Cl)Cl", "note": "(stereo unspecified)", "max response, negative = inhibition": "inactive: -8.23%"},
      {"smiles": "CN(C)CCS", "Potency": "active: 31.6 µM"},
      {"smiles": "O=[N+]([O-])c1cc([N+](=O)[O-])c(O)c([N+](=O)[O-])c1.c1ccc(Oc2ccncc2)cc1", "max response, negative = inhibition": "inactive: -22.8%"},
      {"smiles": "CCOC(=O)c1ccc(NP(C)(=O)Oc2ccc(OC)cc2)cc1", "note": "(stereo unspecified)", "max response, negative = inhibition": "inactive: -13.1%"},
      {"smiles": "CCOP(C)(=S)SCC(=O)NC(C)C(=O)O", "note": "(stereo unspecified)", "max response, negative = inhibition": "inactive: 18.6%"},
      {"smiles": "O=C(OC1CN2CCC1CC2)c1cccc([N+](=O)[O-])c1", "note": "(stereo unspecified)", "max response, negative = inhibition": "inactive: -18.8%"},
      {"smiles": "CCCCOc1ccc(C(=O)NCC2(N3CCCCC3)CCCCC2)cc1OC", "max response, negative = inhibition": "inactive: -26.9%"},
      {"smiles": "CC1CCNP(=O)(N(CCCl)CCCl)O1", "note": "(stereo unspecified)", "max response, negative = inhibition": "inactive: 4.21%"},
      {"smiles": "CCOC(=O)Nc1ccc([As](=O)(O)O)c(O)c1", "max response, negative = inhibition": "inactive: -2.7%"},
      {"smiles": "O=[N+]([O-])c1ccc(Nc2ccc(Oc3ccc([N+](=O)[O-])cc3[N+](=O)[O-])cc2)c([N+](=O)[O-])c1", "max response, negative = inhibition": "inactive: -13.4%"},
      {"smiles": "CP(=O)(Nc1ccccc1Br)Oc1ccccc1", "note": "(stereo unspecified)", "max response, negative = inhibition": "inactive: -28.7%"},
      {"smiles": "COc1ccccc1OP(C)(=O)Nc1ccccc1", "note": "(stereo unspecified)", "max response, negative = inhibition": "inactive: 10.4%"},
      {"smiles": "O=P(Nc1ccccn1)(c1cccc2ccccc12)c1cccc2ccccc12", "max response, negative = inhibition": "inactive: -6.47%"},
      {"smiles": "CCOC(=O)Nc1cccc([As](=O)(O)O)c1", "max response, negative = inhibition": "inactive: -6.26%"},
      {"smiles": "CP(=S)(Nn1cnnc1)Oc1ccccc1", "note": "(stereo unspecified)", "max response, negative = inhibition": "inactive: 31.2%"},
      {"smiles": "O=C(/C=C/c1ccccc1)OC1CN2CCC1CC2", "note": "(stereo unspecified)", "max response, negative = inhibition": "inactive: -0.694%"},
      {"smiles": "CC1=C2N=C(C=C3N=C(C(C)=C4[N-][C@@](C)([C@@H]5N=C1[C@](C)(CCC(=O)NC[C@@H](C)OP(=O)([O-])O[C@H]1[C@@H](O)[C@@H](n6cnc7cc(C)c(C)cc76)O[C@@H]1CO)[C@H]5CC(N)=O)[C@@](C)(CC(N)=O)[C@@H]4CCC(N)=O)[C@@](C)(CC(N)=O)[C@@H]3CCC(N)=O)C(C)(C)[C@@H]2CCC(N)=O.[C-]#N.[Co+3]", "max response, negative = inhibition": "inactive: -3.37%"},
      {"smiles": "CN(C)C1(CNC(=O)c2ccc(S(C)(=O)=O)cc2)CCCCC1", "max response, negative = inhibition": "inactive: -0.61%"},
      {"smiles": "O=[N+]([O-])c1cc([N+](=O)[O-])c(Nc2nnnn2CCO)c([N+](=O)[O-])c1", "max response, negative = inhibition": "inactive: -3.62%"}
    ]}
  ]
}
